Data on one compound can be found in patent US12625141B2, “Fluorescent dye, preparation method and uses thereof” (FLUORESCENCE DIAGNOSIS (SHANGHAI) BIOTECH COMPANY LTD., priority 2019, dated 2026).

Structures are written as SMILES.

The test system of series [1] is F30-8Pepper-5 RNA aptamer.
In series [2] the test system is RNA aptamer in cells.

Regarding `CN(CCO)c1ccc(/C=C(\C#N)c2ccc(C#N)cc2)cn1` [III-8], in series [1] (after binding to RNA aptamer), the Em/nm is 508 nm, the Ex/nm is recorded as 458 nm and the “ε” value amounted to 42500 M⁻¹ cm⁻¹. The “QY (−)” value in series [1] (after binding to RNA aptamer, relative method with Rhodamine 6G as the standard) stood at 0.30. Further, in series [1] (binding to RNA aptamer), the Kd worked out at 27 nM. The “Activation Multiple” value in series [1] (fluorescence activation after binding to RNA aptamer) was determined as 9091. In addition, the “Fluorescence of cells not expressing the RNA aptamer” value in series [2] (cells not expressing the RNA aptamer (FIG. 17B)) is “no fluorescence”. The “Fluorescence of cells transcribing the RNA aptamer” value in series [2] (cells transcribing the RNA aptamer (FIG. 17A)) was “bright fluorescence”.
